The values below come from patent publication US20090275570A1, “SUBSTITUTED HETEROCYCLES AND THEIR USE AS CHK1, PDK1 AND PAK INHIBITORS” (ASTRAZENECA AB, priority 2005, published 2009).

The target in this assay is T1, CHK1 kinase (Homo sapiens, UniProt O14757).
T1 construct: The kinase domain is expressed in baculovirus and purified by the GST tag; GST; made in house; host or cells: baculovirus system (insect cells implied)
T1 sequence (O14757 9-265 limits assumed): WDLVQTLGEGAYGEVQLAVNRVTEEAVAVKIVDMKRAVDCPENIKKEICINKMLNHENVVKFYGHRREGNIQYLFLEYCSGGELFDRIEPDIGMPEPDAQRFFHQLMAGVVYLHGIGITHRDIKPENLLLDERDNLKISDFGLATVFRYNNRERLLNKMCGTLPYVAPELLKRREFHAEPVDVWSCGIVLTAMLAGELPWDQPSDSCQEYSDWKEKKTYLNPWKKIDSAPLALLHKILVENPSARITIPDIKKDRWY
Put plainly: Checkpoint Kinase 1 Assay (SPA). It is filed as biochemical. The procedure:
Checkpoint Kinase 1 Assay: This in vitro assay measures the inhibition of CHK1 kinase by compounds. The kinase domain is expressed in baculovirus and purified by the GST tag. Purified protein and biotinylated peptide substrate (Cdc25C) is then used in a 384 well automated Scintillation Proximity Assay (SPA). Specifically, peptide, enzyme and reaction buffer are mixed and aliquoted into a 384 well plate containing dilution series of compounds and controls. Cold and hot ATP are then added to initiate the reaction. After 2 hours, a SPA bead slurry, […] and EDTA are added to stop the reaction and capture the biotinylated peptide. Plates are then counted on a Topcount. Data is analyzed and IC50s determined for individual compounds.

In general, IC50 refers to the midpoint of a concentration-inhibition curve.

For `COc1cccc(-c2cc3c(N[C@H]4CCCNC4)ncc(C(N)=O)c3s2)c1` [Example 5, 2-(3-methoxyphenyl)-4-[(3S)-piperidin-3-ylamino]thieno[3,2-c]pyridine-7-carboxamide], the IC50 worked out at 16 nM.
